Literature values, collected in PMC5997768 (2018).

Settings: experimentally determined; cited from earlier work

Substance: Meperedine
- pKa: 8.59
